Measurements taken from patent US8828401B2, “Cytotoxic peptides and antibody drug conjugates thereof” (Pfizer Inc., priority 2011, dated 2014).

Legend:
[1] = test system: MDA-MB-468 breast xenografts; assay: MDA-MB-468 breast xenografts with anti-Notch ADCs; format: in vivo, female SCID Hairless Outbred (SHO) mice
Description: (§1) Humanized anti-Notch antibodies, hu28 and hu75, and rat-human chimeric anti-Notch antibodies, ch28 and ch75, were conjugated to various linker-payload combinations and tested in 37622A1 non-small cell lung cancer (NSCLC), HCC2429 lung cancer, MDA-MB-468 breast cancer and N87 gastric cancer xenograft models. For each model described below the first dose was given on Day 0. The tumors were measured at least once a week and their volume was calculated with the formula: tumor volume (mm^3)=0.5×(tumor width^2)(tumor length). The mean tumor volumes (±S.E.M.) for each treatment group were calculated having a maximum of 10 animals and a minimum of 6 animals to be included.
Similar in vivo experiments were performed with the MDA-MB-468 breast cancer cell line as described above. […] To generate xenografts, female SCID Hairless Outbred (SHO) mice were orthotopically implanted with 10×10^6 MDA-MB-468 cells containing 50% Matrigel (BD Biosciences) in the mammary fat pad. When the tumors reached a volume of 250 to 450 mm^3, the tumors were staged to ensure uniformity of the tumor mass among various treatment groups. The MDA-MB-468 breast model was dosed intraveneously Q4dx4 with PBS vehicle, humanized anti-Notch ADCs and control huNeg-8.8 ADCs at the doses provided in Tables 14 and 15.

[2] = test system: HCC2429 lung xenografts; assay: HCC2429 lung xenografts with anti-Notch ADCs; format: in vivo, nude (Nu/Nu) female mice
Description: as §1
Similar in vivo experiments were performed with the HCC2429 lung cancer cell line as described above. […] When the tumors reached a volume of 200 to 400 mm^3, the tumors were staged to ensure uniformity of the tumor mass among various treatment groups. The HCC2429 lung model was dosed intraveneously Q4dx4 with PBS vehicle, humanized anti-Notch ADCs and control huNeg-8.8 ADCs at the doses provided in Tables 12 and 13.

B1: hu75-vc0101: humanized anti-Notch antibody hu75 conjugated to mcValCitPABC-#54 (conjugate)
heavy: EVQLVESGGGLVQPGGSLRLSCAASGYAFTDYWMTWVRQAPGKGLEWVAEISPNSGGTNFNEKFKGRFTISVDNAKNSLYLQMNSLRAEDTAVYYCARGEIRYNWFAYWGQGTLVTVSSASTKGPSVFPLAPSSKSTSGGTAALGCLVKDYFPEPVTVSWNSGALTSGVHTFPAVLQSSGLYSLSSVVTVPSSSLGTQTYICNVNHKPSNTKVDKKV[human IgG1 Fc left out]
light: DIQMTQSPSSLSASVGDRVTITCKASQNVGNNIAWYQQKPGKAPKLLIYYASNRYTGVPSRFSGSGYGTDFTLTISSLQPEDFATYYCQRLYNSPFTFGGGTKVEIKRTVAAPSVFIFPPSDEQLKSGTASVVCLLNNFYPREAKVQWKVDNALQSGNSQESVTEQDSKDSTYSLSSTLTLSKADYEKHKVYACEVTHQGLSSPVTKSFNRGEC
[1]; Dose 1 mg/kg Q4dx4 iv, DAY 18
  tumor volume (mm^3 ± SEM): 296 ± 33 mm^3
[1]; Dose 1 mg/kg Q4dx4 iv, DAY 21
  tumor volume (mm^3 ± SEM): 260 ± 49 mm^3
[1]; Dose 1 mg/kg Q4dx4 iv, DAY 26
  tumor volume (mm^3 ± SEM): 267 ± 59 mm^3
[1]; Dose 1 mg/kg Q4dx4 iv, DAY 29
  tumor volume (mm^3 ± SEM): 261 ± 62 mm^3
[1]; Dose 1 mg/kg Q4dx4 iv, DAY 32
  tumor volume (mm^3 ± SEM): 264 ± 67 mm^3
[1]; Dose 1 mg/kg Q4dx4 iv, DAY 35
  tumor volume (mm^3 ± SEM): 326 ± 86 mm^3
[1]; Dose 1 mg/kg Q4dx4 iv, DAY 39
  tumor volume (mm^3 ± SEM): 324 ± 81 mm^3
[1]; Dose 1 mg/kg Q4dx4 iv, DAY 42
  tumor volume (mm^3 ± SEM): 381 ± 94 mm^3
[1]; Dose 1 mg/kg Q4dx4 iv, DAY 47
  tumor volume (mm^3 ± SEM): 442 ± 69 mm^3
[1]; Dose 1 mg/kg Q4dx4 iv, DAY 50
  tumor volume (mm^3 ± SEM): 484 ± 89 mm^3
[1]; Dose 1 mg/kg Q4dx4 iv, DAY 53
  tumor volume (mm^3 ± SEM): 452 ± 78 mm^3
[1]; Dose 1 mg/kg Q4dx4 iv, DAY 56
  tumor volume (mm^3 ± SEM): 535 ± 93 mm^3
[1]; Dose 1 mg/kg Q4dx4 iv, DAY 60
  tumor volume (mm^3 ± SEM): 603 ± 98 mm^3
[1]; Dose 3 mg/kg Q4dx4 iv, DAY 0
  tumor volume (mm^3 ± SEM): 347 ± 20 mm^3
[1]; Dose 3 mg/kg Q4dx4 iv, DAY 4
  tumor volume (mm^3 ± SEM): 444 ± 28 mm^3
[1]; Dose 3 mg/kg Q4dx4 iv, DAY 7
  tumor volume (mm^3 ± SEM): 338 ± 20 mm^3
[1]; Dose 3 mg/kg Q4dx4 iv, DAY 11
  tumor volume (mm^3 ± SEM): 277 ± 22 mm^3
[1]; Dose 3 mg/kg Q4dx4 iv, DAY 14
  tumor volume (mm^3 ± SEM): 181 ± 19 mm^3
[1]; Dose 3 mg/kg Q4dx4 iv, DAY 18
  tumor volume (mm^3 ± SEM): 90 ± 12 mm^3
[1]; Dose 3 mg/kg Q4dx4 iv, DAY 21
  tumor volume (mm^3 ± SEM): 60 ± 9 mm^3
[1]; Dose 3 mg/kg Q4dx4 iv, DAY 26
  tumor volume (mm^3 ± SEM): 16 ± 10 mm^3
[1]; Dose 3 mg/kg Q4dx4 iv, DAY 29
  tumor volume (mm^3 ± SEM): 8 ± 8 mm^3
[1]; Dose 3 mg/kg Q4dx4 iv, DAY 32
  tumor volume (mm^3 ± SEM): 7 ± 7 mm^3
[1]; Dose 3 mg/kg Q4dx4 iv, DAY 35
  tumor volume (mm^3 ± SEM): 0 ± 0 mm^3
[1]; Dose 3 mg/kg Q4dx4 iv, DAY 39
  tumor volume (mm^3 ± SEM): 0 ± 0 mm^3
[1]; Dose 3 mg/kg Q4dx4 iv, DAY 42
  tumor volume (mm^3 ± SEM): 0 ± 0 mm^3
[1]; Dose 3 mg/kg Q4dx4 iv, DAY 47
  tumor volume (mm^3 ± SEM): 0 ± 0 mm^3
[1]; Dose 3 mg/kg Q4dx4 iv, DAY 50
  tumor volume (mm^3 ± SEM): 0 ± 0 mm^3
[1]; Dose 3 mg/kg Q4dx4 iv, DAY 53
  tumor volume (mm^3 ± SEM): 0 ± 0 mm^3
[1]; Dose 3 mg/kg Q4dx4 iv, DAY 56
  tumor volume (mm^3 ± SEM): 0 ± 0 mm^3
[1]; Dose 3 mg/kg Q4dx4 iv, DAY 60
  tumor volume (mm^3 ± SEM): 0 ± 0 mm^3
[1]; Dose 3 mg/kg Q4dx4 iv, DAY 63
  tumor volume (mm^3 ± SEM): 0 ± 0 mm^3
[1]; Dose 3 mg/kg Q4dx4 iv, DAY 67
  tumor volume (mm^3 ± SEM): 0 ± 0 mm^3
[1]; Dose 3 mg/kg Q4dx4 iv, DAY 70
  tumor volume (mm^3 ± SEM): 0 ± 0 mm^3
[1]; humanized ADCs, Q4dx4, doses of Tables 14 and 15
  effect on growth of MDA-MB-468 breast xenografts (in words): inhibited growth of MDA-MB-468 breast xenografts in a dose-dependent manner
[2]; 0.3 mg/kg Q4dx4, DAY 1
  tumor volume (mm^3 +/− SEM): 524 ± 66 mm^3
[2]; 0.3 mg/kg Q4dx4, DAY 3
  tumor volume (mm^3 +/− SEM): 713 ± 74 mm^3
[2]; 0.3 mg/kg Q4dx4, DAY 6
  tumor volume (mm^3 +/− SEM): 1078 ± 74 mm^3
[2]; 0.3 mg/kg Q4dx4, DAY 8
  tumor volume (mm^3 +/− SEM): 1499 ± 115 mm^3
[2]; 0.3 mg/kg Q4dx4, DAY 10
  tumor volume (mm^3 +/− SEM): 1830 ± 120 mm^3
[2]; 0.3 mg/kg Q4dx4, DAY 13
  tumor volume (mm^3 +/− SEM): 2408 ± 226 mm^3
[2]; 0.3 mg/kg Q4dx4, DAY −1
  tumor volume (mm^3 +/− SEM): 247 ± 29 mm^3
[2]; 1 mg/kg Q4dx4, DAY 1
  tumor volume (mm^3 +/− SEM): 548 ± 37 mm^3
[2]; 1 mg/kg Q4dx4, DAY 3
  tumor volume (mm^3 +/− SEM): 753 ± 93 mm^3
[2]; 1 mg/kg Q4dx4, DAY 6
  tumor volume (mm^3 +/− SEM): 1096 ± 146 mm^3
[2]; 1 mg/kg Q4dx4, DAY 8
  tumor volume (mm^3 +/− SEM): 1428 ± 200 mm^3
[2]; 1 mg/kg Q4dx4, DAY 10
  tumor volume (mm^3 +/− SEM): 1611 ± 189 mm^3
[2]; 1 mg/kg Q4dx4, DAY 13
  tumor volume (mm^3 +/− SEM): 1803 ± 208 mm^3
[2]; 1 mg/kg Q4dx4, DAY 15
  tumor volume (mm^3 +/− SEM): 1871 ± 232 mm^3
[2]; 1 mg/kg Q4dx4, DAY 17
  tumor volume (mm^3 +/− SEM): 1948 ± 228 mm^3
[2]; 1 mg/kg Q4dx4, DAY −1
  tumor volume (mm^3 +/− SEM): 246 ± 23 mm^3
[2]; 3 mg/kg Q4dx4, DAY 1
  tumor volume (mm^3 +/− SEM): 498 ± 39 mm^3
[2]; 3 mg/kg Q4dx4, DAY 3
  tumor volume (mm^3 +/− SEM): 498 ± 44 mm^3
[2]; 3 mg/kg Q4dx4, DAY 6
  tumor volume (mm^3 +/− SEM): 469 ± 70 mm^3
[2]; 3 mg/kg Q4dx4, DAY 8
  tumor volume (mm^3 +/− SEM): 407 ± 71 mm^3
[2]; 3 mg/kg Q4dx4, DAY 10
  tumor volume (mm^3 +/− SEM): 370 ± 81 mm^3
[2]; 3 mg/kg Q4dx4, DAY 13
  tumor volume (mm^3 +/− SEM): 273 ± 69 mm^3
[2]; 3 mg/kg Q4dx4, DAY 15
  tumor volume (mm^3 +/− SEM): 298 ± 88 mm^3
[2]; 3 mg/kg Q4dx4, DAY 17
  tumor volume (mm^3 +/− SEM): 250 ± 77 mm^3
[2]; 3 mg/kg Q4dx4, DAY 20
  tumor volume (mm^3 +/− SEM): 177 ± 44 mm^3
[2]; 3 mg/kg Q4dx4, DAY 23
  tumor volume (mm^3 +/− SEM): 160 ± 35 mm^3
[2]; 3 mg/kg Q4dx4, DAY 27
  tumor volume (mm^3 +/− SEM): 174 ± 51 mm^3
[2]; 3 mg/kg Q4dx4, DAY 30
  tumor volume (mm^3 +/− SEM): 196 ± 72 mm^3
[2]; 3 mg/kg Q4dx4, DAY 34
  tumor volume (mm^3 +/− SEM): 295 ± 121 mm^3
[2]; 3 mg/kg Q4dx4, DAY 37
  tumor volume (mm^3 +/− SEM): 433 ± 179 mm^3
[2]; 3 mg/kg Q4dx4, DAY 41
  tumor volume (mm^3 +/− SEM): 606 ± 259 mm^3
[2]; 3 mg/kg Q4dx4, DAY 45
  tumor volume (mm^3 +/− SEM): 836 ± 359 mm^3
[2]; 3 mg/kg Q4dx4, DAY 49
  tumor volume (mm^3 +/− SEM): 732 ± 350 mm^3
[2]; 3 mg/kg Q4dx4, DAY −1
  tumor volume (mm^3 +/− SEM): 245 ± 28 mm^3
[2]; humanized ADCs, Q4dx4, doses of Tables 12 and 13
  effect on growth of HCC2429 lung xenografts (in words): inhibited growth of HCC2429 lung xenografts in a dose-dependent manner
